We go through one molecule from publication PMC3723849 (PLoS ONE, 2013).

Amino acid sequences for entries named in this document (tags omitted). Residues count along the entry.
UniProt Q04609, 44-750: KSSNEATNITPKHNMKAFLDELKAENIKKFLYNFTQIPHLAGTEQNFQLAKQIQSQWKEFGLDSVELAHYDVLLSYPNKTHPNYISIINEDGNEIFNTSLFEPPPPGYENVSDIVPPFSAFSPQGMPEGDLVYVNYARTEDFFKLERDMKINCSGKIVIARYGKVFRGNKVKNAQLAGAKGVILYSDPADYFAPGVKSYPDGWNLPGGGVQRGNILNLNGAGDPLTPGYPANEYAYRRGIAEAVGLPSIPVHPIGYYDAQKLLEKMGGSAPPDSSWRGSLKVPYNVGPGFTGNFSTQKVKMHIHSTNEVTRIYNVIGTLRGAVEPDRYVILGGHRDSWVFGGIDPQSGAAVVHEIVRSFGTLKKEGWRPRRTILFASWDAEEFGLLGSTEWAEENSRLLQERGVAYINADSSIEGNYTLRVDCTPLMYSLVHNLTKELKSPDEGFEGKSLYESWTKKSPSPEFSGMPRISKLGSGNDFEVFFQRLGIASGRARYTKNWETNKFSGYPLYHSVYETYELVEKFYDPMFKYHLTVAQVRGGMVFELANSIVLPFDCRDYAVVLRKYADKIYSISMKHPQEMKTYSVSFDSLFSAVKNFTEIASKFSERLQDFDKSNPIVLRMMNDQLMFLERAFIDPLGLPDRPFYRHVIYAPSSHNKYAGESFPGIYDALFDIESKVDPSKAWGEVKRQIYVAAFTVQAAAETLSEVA

For assay [1], the target named is T1, His-tagged PSMA (PSMA-His6), soluble ectodomain of prostate-specific membrane antigen (human, UniProt Q04609 44-750).
T1 construct: prostate-specific membrane antigen (PSMA), human, soluble ectodomain; also called soluble PSMA; poly-histidine tagged PSMA; source: bought: R&D Systems
In words: enzyme inhibition assay; PSMA-His6 pre-incubated with peptide (37°C, 30 min, TBS), then NAAG substrate added; released glutamate read with the Amplex Red kit; Ki from the Cheng-Prusoff equation with KM = 0.13 µM and 1 µM NAAG. The settings on record: both partners purified.

Assay [2] addresses T1, His-tagged PSMA (PSMA-His6), soluble …. In words: cell-based or functional assay.

B1: Peptide 562 (peptide)
peptide: SHSFSVGSGDHSPFT
notes: 15-mer from phage clones D, H; Made on Rink amide resin, so a C-terminal amide is to be expected (surmised); also called 562 monomer; source: synthetic peptide (HPLC purified)
Consider B1, for which the Ki – broadly, the dissociation constant of the complex between target and ligand, obtained from inhibition or displacement – in assay [1] was found to be 76 µM. The “IC50 of inhibition of NAAG hydrolysis by PSMA-His6 (Amplex Red glutamate assay, 1 µM NAAG)” value in assay [2] amounted to 661 µM.
